Biological target: T1, F2R (Homo sapiens, UniProt P25116)
T1 sequence (P25116 1-425): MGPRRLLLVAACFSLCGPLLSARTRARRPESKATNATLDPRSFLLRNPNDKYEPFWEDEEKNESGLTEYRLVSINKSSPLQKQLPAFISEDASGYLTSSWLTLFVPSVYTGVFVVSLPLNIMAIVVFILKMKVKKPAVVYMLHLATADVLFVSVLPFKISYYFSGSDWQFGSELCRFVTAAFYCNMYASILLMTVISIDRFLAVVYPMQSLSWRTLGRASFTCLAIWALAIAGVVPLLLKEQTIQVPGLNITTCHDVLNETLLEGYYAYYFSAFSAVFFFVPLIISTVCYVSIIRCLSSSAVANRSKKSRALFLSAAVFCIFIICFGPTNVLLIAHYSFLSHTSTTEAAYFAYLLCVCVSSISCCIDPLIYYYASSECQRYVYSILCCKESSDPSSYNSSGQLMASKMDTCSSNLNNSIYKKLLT
Assay: cell-based

EC50: 12.4 µM
Structure (SMILES): CC(C)C[C@H](NC(=O)[C@H](CC(C)C)NC(=O)[C@H](Cc1ccccc1)NC(=O)[C@@H](N)[C@@H](C)O)C(=O)N[C@@H](CCCNC(=N)N)C(N)=O [TFLLR-NH2]

From PMC6706627, “Mapping Interactions of Microbial Metabolites with Human G-Protein-Coupled Receptors” (Cell Host & Microbe, 2019)
